Experimental data: ChEMBL document CHEMBL1133676, “Synthesis and hypolipidemic and antiplatelet activities of alpha-asarone isomers in humans (in vitro), mice (in vivo), and rats (in vivo)” (2000)

Columns and labels:
[1] = Ratio of LDL cholesterol level to HDL cholesterol level; type: functional
[2] = Atherogenic index is expressed as (total cholesterol-LDL/HDL); type: functional

Structure (SMILES)	Ratio [1]	Atherogenic index [2]
C/C=C/c1ccc(OC)c(OC)c1OC.CC(C)CCC[C@@H](C)[C@H]1CC[C@H]2[C@@H]3CC=C4C[C@@H](O)CC[C@]4(C)[C@H]3CC[C@]12C	0.7	1.26
CC(C)CCC[C@@H](C)[C@H]1CC[C@H]2[C@@H]3CC=C4C[C@@H](O)CC[C@]4(C)[C@H]3CC[C@]12C.CCOC(=O)C(C)(C)Oc1ccc(Cl)cc1	2.08	2.87
C/C=C/c1c(OC)ccc(OC)c1OC.CC(C)CCC[C@@H](C)[C@H]1CC[C@H]2[C@@H]3CC=C4C[C@@H](O)CC[C@]4(C)[C@H]3CC[C@]12C	1.59	2.8
CC(C)CCC[C@@H](C)[C@H]1CC[C@H]2[C@@H]3CC=C4C[C@@H](O)CC[C@]4(C)[C@H]3CC[C@]12C	1.49	2.82
C/C=C/c1cc(OC)cc(OC)c1OC.CC(C)CCC[C@@H](C)[C@H]1CC[C@H]2[C@@H]3CC=C4C[C@@H](O)CC[C@]4(C)[C@H]3CC[C@]12C	0.91	1.5
C/C=C/c1cc(OC)c(OC)c(OC)c1.CC(C)CCC[C@@H](C)[C@H]1CC[C@H]2[C@@H]3CC=C4C[C@@H](O)CC[C@]4(C)[C@H]3CC[C@]12C	0.44	1.06
C/C=C/c1cc(OC)c(OC)cc1OC.CC(C)CCC[C@@H](C)[C@H]1CC[C@H]2[C@@H]3CC=C4C[C@@H](O)CC[C@]4(C)[C@H]3CC[C@]12C	0.54	1.45
C/C=C/c1c(OC)cc(OC)cc1OC.CC(C)CCC[C@@H](C)[C@H]1CC[C@H]2[C@@H]3CC=C4C[C@@H](O)CC[C@]4(C)[C@H]3CC[C@]12C	0.97	1.58
